# According to PubChem BioAssay AID2071 (Sanford-Burnham Center for Chemical Genomics, 2009):
# Only a part is listed here, and it is no random draw. Some structures show a salt or complex split into parts, the way the source records it. Activity calls are given as the source filed them. Cut-off read from the data, not from the text of the source: active = inhibition mostly above about 24% (no sharp cut-off); inactive = mostly below about 32%.
# Test: NALP1 inflammasome inhibitors in reconstituted yeast, colorimetric, S. cerevisiae, triplicate retest (AID 2071)
# Details: S. cerevisiae NALP1/ASC/caspase-1 growth, X-gal OD620, 72 h; at 10 µM; active compounds read high
row,Structure (SMILES),inhibition
1,O=C(OCCN1CCN(CCOCc2ccccc2)CC1)C(O)(c1ccccc1)c1ccccc1,inactive: 37.6%
2,O=C(OC1CN2CCC1CC2)c1ccc([N+](=O)[O-])cc1 (stereo not given),active: 38.8%
3,COc1ccc2c(c1O)-c1c(O)c(OC)cc3c1[C@H](C2)[N+](C)(C)CC3.O=[N+]([O-])c1cc([N+](=O)[O-])c([O-])c([N+](=O)[O-])c1[O-],inactive: 7.8%
4,CC(C)c1ccc(OP(C)(=O)Nc2ccc(SC(F)(F)F)cc2)cc1 (stereo not given),inactive: 37.5%
5,CP(=O)(Nc1ccccc1F)Oc1ccccc1 (stereo not given),inactive: 22%
6,CCN(CC)CCCOC(=O)C(O)(c1ccccc1)C1CCCCC1 (stereo not given),inactive: 5.7%
7,O=[N+]([O-])c1cc([N+](=O)[O-])c(OC2CCCCC2O)c([N+](=O)[O-])c1 (stereo not given),inactive: -8.9%
8,CCCCCOc1ccc(NP(C)(=O)Oc2ccc(Cl)cc2Cl)cc1 (stereo not given),inactive: 16.1%
9,CP(=O)(Nc1ccccc1)Oc1ccc(F)cc1 (stereo not given),inactive: 7%
10,COc1ccc(OP(C)(=O)Nc2ccc(SC(F)(F)F)cc2)cc1 (stereo not given),inactive: 10.4%
11,CCOC(=O)c1ccc(NP(C)(=O)Oc2ccc(F)cc2)cc1 (stereo not given),inactive: 25.2%
12,Cc1cc(-c2cccc3ccccc23)c(C)cn1.O=[N+]([O-])c1cc([N+](=O)[O-])c(O)c([N+](=O)[O-])c1,inactive: -6.6%
13,O=[N+]([O-])c1cc([N+](=O)[O-])c(NCC2CCS(=O)(=O)C2)c([N+](=O)[O-])c1 (stereo not given),inactive: -7%
14,O=[N+]([O-])c1ccc(OP2(=O)COCCO2)cc1 (stereo not given),inactive: -4%
15,COc1ccc(OP(C)(=O)Nc2cccc(Br)c2)cc1 (stereo not given),inactive: -15.9%
16,COc1ccc(NP(C)(=O)Oc2ccccc2OC)cc1 (stereo not given),inactive: 7.9%
17,CN(C)CCOC(=O)C(O)(c1ccccc1)C1CCCCC1 (stereo not given),inactive: 29.7%
18,CP(=O)(Nc1ccc2c(c1)OCCO2)Oc1ccccc1 (stereo not given),inactive: 4.2%
19,Cc1ccccc1NP(C)(=O)Nc1ccccc1C,inactive: -0.2%
20,CP(=O)(Nc1ccc(SC(F)(F)F)cc1)Oc1ccc(F)cc1 (stereo not given),inactive: 14.6%
21,CCOP(C)(=S)SCC(=O)NC(C)(CC)C(=O)O (stereo not given),inactive: 27.5%
22,CP(=O)(Nc1ccc(Cl)cc1)Oc1ccc(F)cc1 (stereo not given),inactive: -0.2%
23,CC(C)(C)c1ccc(OP(C)(=O)O)cc1,inactive: 0.5%
24,COc1ccccc1OP(C)(=O)Nc1ccccc1Br (stereo not given),inactive: 15.3%
25,CN(C)C(=O)c1c([N+](=O)[O-])cc([N+](=O)[O-])cc1[N+](=O)[O-],inactive: 1.3%
26,CCN(CC)CC(O)COC(=O)C(O)(c1ccccc1)C1CCCCC1 (stereo not given),inactive: 11.5%
27,COc1ccc(OP(C)(=O)Nc2ccc(Br)cc2)cc1 (stereo not given),inactive: 33.7%

row,Structure (SMILES),inhibition
1,CP(=O)(Oc1ccccc1)N1CCOC1=O (stereo not given),inactive: -26.3%
2,CCc1ccc(OP(C)(=O)Nc2cccnc2)cc1 (stereo not given),inactive: 8.9%
3,COc1ccccc1OP(C)(=O)Nc1c(C)n(C)n(-c2ccccc2)c1=O (stereo not given),inactive: 8.1%
4,O=C(OCCCN1CCCC1)C(O)(c1ccccc1)C1CCCCC1 (stereo not given),inactive: 20.5%
5,CP(=O)(OC12CC3CC(CC(C3)C1)C2)OC12CC3CC(CC(C3)C1)C2,inactive: -1.3%
6,CCOC(=O)c1ccc(NP(C)(=O)Oc2ccc(Cl)cc2)cc1 (stereo not given),inactive: 22.4%
7,Cc1nc2ccc3ccccc3c2o1.O=[N+]([O-])c1cc([N+](=O)[O-])c(O)c([N+](=O)[O-])c1,inactive: 25%
8,CP(=O)(OCCOc1ccccc1)OCCOc1ccccc1,inactive: 5%
9,CP(=O)(Nc1ccc(Cl)cc1Cl)Oc1ccccc1 (stereo not given),inactive: -27.4%
10,Cc1cc(C)cc(OP(C)(=O)Nc2cccc(C(F)(F)F)c2)c1 (stereo not given),inactive: 2.3%
11,COc1ccc(OP(C)(=O)Nc2ccccc2Br)cc1 (stereo not given),inactive: 33.7%
12,COc1ccccc1OP(C)(=O)Nc1ccc(C)c(C)c1 (stereo not given),inactive: 0.3%
13,O=[N+]([O-])c1cc([N+](=O)[O-])c(Nc2ccccn2)c([N+](=O)[O-])c1,inactive: 11%
14,Cc1c(NP(C)(=O)Oc2ccc(C(C)C)cc2)c(=O)n(-c2ccccc2)n1C (stereo not given),inactive: 3.2%
15,CCc1ccc(OP(C)(=O)O)cc1,inactive: 7.3%
16,CP(=O)(Nc1ccccn1)Oc1ccccc1 (stereo not given),inactive: 26.5%
17,COc1ccccc1OP(C)(=O)Nc1ccc(C)cc1C (stereo not given),inactive: 2.9%
18,CN(C)CCOC(=O)C(O)(c1ccccc1)C1CCCC1 (stereo not given),inactive: 18.3%
19,COc1ccc(OP(C)(=O)Nc2ccccn2)cc1 (stereo not given),inactive: 13.5%
20,CCN(CC)CCCOC(=O)C(O)(c1ccccc1)c1ccccc1,inactive: 11.3%
21,CCOC(=O)c1ccc(NP(C)(=O)Oc2ccccc2)cc1 (stereo not given),inactive: 15.5%
22,COc1ccccc1OP(C)(=O)Nc1ccc(C)cc1 (stereo not given),inactive: 11.3%
23,Cc1ccc(NP(C)(=O)Oc2ccccc2)c(C)c1 (stereo not given),inactive: 7.2%
24,COc1ccccc1OP(C)(=O)Nc1cc(Cl)ccc1C (stereo not given),inactive: -3.9%
25,COc1ccc(OP(C)(=O)Nc2cccc(F)c2)cc1 (stereo not given),inactive: -4.3%
26,Cc1cc(C)cc(OP(C)(N)=O)c1 (stereo not given),inactive: -2.7%
27,CC(C)(C)c1ccc(OP(C)(=O)Nc2ccc(SC(F)(F)F)cc2)cc1 (stereo not given),inactive: 12.7%

row,Structure (SMILES),inhibition
1,Cc1cccc(C)c1OP(C)(N)=O (stereo not given),inactive: 8.6%
2,O=[N+]([O-])c1ccc2c(c1)C=Nc1ccccc1O2,inactive: 8.8%
3,CP(=S)(Nn1cnnc1)Oc1ccccc1 (stereo not given),inactive: 0.6%
4,COc1ccccc1OP(C)(=O)Nc1ccccc1 (stereo not given),inactive: 3.6%
5,CP(=O)(Nc1ccccc1Br)Oc1ccccc1 (stereo not given),inactive: 31.9%
6,CCOP(C)(=S)SCC(=O)NC(C)C(=O)O (stereo not given),inactive: 16%
7,CCOC(=O)c1ccc(NP(C)(=O)Oc2ccc(OC)cc2)cc1 (stereo not given),inactive: 14.8%
8,CP(=O)(Nc1ccccn1)Oc1ccc(Cl)cc1 (stereo not given),inactive: 2.1%
9,Cc1cccc(C)c1OP(C)(=O)Nc1ccc(SC(F)(F)F)cc1 (stereo not given),inactive: 19.1%
10,CP(=O)(Oc1ccccc1)OC(c1ccccc1)C(F)(F)F (stereo not given),inactive: -7%
11,CP(=O)(NC(=O)Nc1ccccc1)Oc1ccccc1 (stereo not given),inactive: -15.4%
12,Cc1cc(C)cc(OP(C)(=O)Nc2ccc(SC(F)(F)F)cc2)c1 (stereo not given),inactive: 31.3%
13,Cc1nc2ccc3ccccc3c2s1.O=[N+]([O-])c1cc([N+](=O)[O-])c(O)c([N+](=O)[O-])c1,inactive: 22.4%
14,O=[N+]([O-])c1cc([N+](=O)[O-])c(-n2nnc3ccccc32)c([N+](=O)[O-])c1,inactive: 8.5%
15,CN1CCCCC1COC(=O)C1(O)c2ccccc2CCc2ccccc21 (stereo not given),inactive: 17%
16,COc1ccccc1OP(C)(=O)Nc1c(C)cccc1C (stereo not given),inactive: -14.2%
17,CP(=O)(Nc1ccc(SC(F)(F)F)cc1)Oc1ccccc1 (stereo not given),inactive: 23.5%
18,CCCOc1ccc(NP(C)(=O)Oc2ccc(Cl)cc2)cc1 (stereo not given),inactive: -14.2%
19,O=[N+]([O-])c1cc([N+](=O)[O-])c(Nc2nnnn2CCO)c([N+](=O)[O-])c1,inactive: 6.2%
20,CCOC(=O)C(CC)C1=NC(C)(C)Cc2ccccc21.O=[N+]([O-])c1cc([N+](=O)[O-])c(O)c([N+](=O)[O-])c1 (stereo not given),inactive: -3.8%
21,CC1=NCCc2c1[nH]c1ccccc21.O=[N+]([O-])c1cc([N+](=O)[O-])c(O)c([N+](=O)[O-])c1,active: 57.5%
22,CP(=O)(Nc1cccc(Br)c1)Oc1ccccc1 (stereo not given),inactive: 11.8%
23,Cc1cc(C)cc(OP(C)(=O)Nc2ccccn2)c1 (stereo not given),inactive: -8.5%
24,Cc1ccc(C)c(NP(C)(=O)Oc2ccccc2)c1 (stereo not given),inactive: 0.9%
25,Cc1cc(C)cc(OP(C)(=O)Nc2ccc(C)cc2C)c1 (stereo not given),inactive: 10.3%
26,CCOC(=O)c1ccc(NP(C)(=O)Oc2cc(C)cc(C)c2)cc1 (stereo not given),inactive: 8%
